Reference: PubChem BioAssay (NCI)
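Grown in 96-well plates, cells were treated for 48 hours with each compound at five concentrations. Insufficient inhibition: endpoint recorded as highest concentration tested. GI50 = concentration required for 50% inhibition of growth. The concentration for full growth arrest is given as TGI.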

Tested on: MDA-MB-468 breast
Assay: NCI-60 cell line screen, 48 h

SMILES: CN(CCCl)CCCl
- GI50: 363 nM
- TGI: 1960 nM
